Assay results: US20230416330A1, “Optimized GIP Peptide Analogues” (Antag Therapeutics ApS, priority 2019, published 2023)

How the values were obtained:
[1] = Physical stability: fibril formation in Thioflavin T (ThT) assay with agitation; type: physicochemical; conditions: Na, MilliQ (8), 25° C.
Procedure: Continuous measurement of the fluorescence emission at 486 nm can be used as a measure of fibrillation behavior of peptides and proteins. The time until onset of fibrillation or fibrillation lag time is estimated here by defining the lag time (Tlag) as the point in time where the signal relative to the pre-transition baseline has reached 10% of the post-transition baseline.
50 mM sodium phosphate buffer for dissolving some samples was prepared in ultrapure water (Milli-Q® Reference A+ System, Merck) with a resistivity of 18.2 MΩ·cm. The buffer was adjusted to pH 7.4 and filtered.
The ultrapure water (MilliQ) for dissolving some samples was adjusted to pH 7.4 with NaOH and filtered prior to sample preparation.
Peptides were either dissolved in sodium phosphate buffer (50 mM, pH 7.4, filtered) or dissolved in ultrapure (MilliQ) water (adjusted to pH 7.4 with NaOH, filtered) (see Table 3). All peptide samples were prepared to a concentration of 1, 5, 7.5 or 15 mg/ml. All samples, with the exception of reference peptides GIP(3-30), AT158, and AT482 dissolved readily and produced clear and colorless solutions with gentle mixing. Peptide samples were subsequently filtered through 0.22 μm nylon filters (Q-Max® RR syringe filter, 13 mm, Frisenette, DK) to produce particle-free solutions. All samples were added to a 96-well plate reader for the ThT assay at t=0. […]

[2] = Solubility by visual inspection of peptide solutions; type: physicochemical; conditions: Na, MilliQ (8)
Procedure: Peptides were either dissolved in sodium phosphate buffer (50 mM, pH 7.4, filtered) or dissolved in ultrapure (MilliQ) water (adjusted to pH 7.4 with NaOH, filtered) (see Table 3). All peptide samples were prepared to a concentration of 1, 5, 7.5 or 15 mg/ml. All samples, with the exception of reference peptides GIP(3-30), AT158, and AT482 dissolved readily and produced clear and colorless solutions with gentle mixing. Peptide samples were subsequently filtered through 0.22 μm nylon filters (Q-Max® RR syringe filter, 13 mm, Frisenette, DK) to produce particle-free solutions. All samples were added to a 96-well plate reader for the ThT assay at t=0.
Clear visual appearance may be taken as an indicator of the immediate solubility of the peptide. […] Thus, A13Aib and/or N24E substitutions appear to increase solubility.

Question: Which results are given for `CC[C@H](C)[C@H](NC(=O)[C@H](CCCCN)NC(=O)[C@H](CCC(=O)O)NC(=O)[C@H](CC(C)C)NC(=O)C(C)(C)NC(=O)[C@@H](NC(=O)[C@H](CO)NC(=O)[C@H](Cc1ccc(O)cc1)NC(=O)[C@H](CCC(=O)O)NC(=O)[C@H](CO)NC(=O)[C@@H](NC(=O)[C@H](Cc1ccccc1)NC(=O)[C@@H](NC(=O)CNC(=O)[C@@H](N)CCC(=O)O)[C@@H](C)O)[C@@H](C)CC)[C@@H](C)CC)C(=O)N[C@@H](CCCCNC(=O)[C@H](CCCCN)NC(=O)[C@H](C)NC(=O)[C@H](C)NC(=O)[C@H](C)NC(=O)[C@H](CCC(=O)O)NC(=O)[C@H](CCCCN)NC(=O)[C@H](C)NC(=O)[C@H](C)NC(=O)[C@H](C)NC(=O)[C@H](CCC(=O)O)NC(=O)[C@H](CCCCN)NC(=O)[C@H](C)NC(=O)[C@H](C)NC(=O)[C@H](C)NC(=O)[C@H](CCC(=O)O)NC(=O)CCCCCCCCCCCCCCC(=O)O)C(=O)N[C@@H](CCC(N)=O)C(=O)N[C@@H](CCC(N)=O)C(=O)N[C@@H](CCC(=O)O)C(=O)N[C@@H](Cc1ccccc1)C(=O)N[C@H](C(=O)N[C@@H](CCC(=O)O)C(=O)N[C@@H](Cc1c[nH]c2ccccc12)C(=O)N[C@@H](CC(C)C)C(=O)N[C@@H](CC(C)C)C(=O)N[C@@H](C)C(=O)N[C@@H](CCC(N)=O)C(=O)N[C@@H](CCCCN)C(=O)N1CCC[C@H]1C(=O)N[C@@H](CO)C(=O)N[C@@H](CO)C(=O)NCC(=O)N[C@@H](C)C(=O)N1CCC[C@H]1C(=O)N1CCC[C@H]1C(=O)N1CCC[C@H]1C(=O)N[C@@H](CO)C(=O)O)C(C)C` [AT724]?
Answer: Avr lag time (h) ([1]; 7.5 mg/ml): fnd (Fnd = fibrils not detected within experiment time (96 hours) with agitation.); Avr lag time (h) ([1]; 15 mg/ml): fnd (Fnd = fibrils not detected within experiment time (96 hours) with agitation.); Visual appearance ([2]; 7.5 mg/ml): Clear; Visual appearance ([2]; 15 mg/ml): Clear
